Assay results reported in PubChem BioAssay AID739 (SRMLSC, 2007).
The entries are a selection whose mix differs from that of the whole data set. Activity calls are given as the source filed them. Cut-off read from the data, not from the text of the source: active = inhibition above about 30%; inactive = the rest.

Experiment: phenotypic screen on post-Golgi transport, primary screen (AID 739);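 note: yeast cells grown in 1536-well plates; yeast grown about 18 h at 30C before absorbance read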
Details: post-Golgi transport phenotypic cell assay; at 10 µM; stronger effect = higher value

| SMILES | inhibition |
| --- | --- |
| CCOP(=O)(Nc1ccccc1)OCC | inactive: 7.47% |
| CC(C)CC(=O)NC(Sc1ccc(Cl)cc1)C(Cl)(Cl)Cl (centres undefined) | inactive: -7.98% |
| Cc1c2non([O-])c-2c(C)[n+](=O)[n+]1[O-] | inactive: 1.46% |
| Oc1ccccc1CNc1ccccn1 | inactive: -6.63% |
| CC(=O)N1C2C3N(C(C)=O)C1C1N(C(C)=O)C(C(N1C(C)=O)N3C(C)=O)N2C(C)=O | inactive: -1.41% |
| O=[N+]([O-])c1cccc2n[nH]nc12 | inactive: -4.25% |
| CCc1nc2c(n1)c1c(non1O)c1c2no[n+]1[O-] | inactive: 1.77% |
| CC1CCN(C(=O)Oc2c(Cl)cc(Cl)c3cccnc23)CC1 | inactive: -0.95% |
| O=C(OC1CN2CCC1CC2)c1cccc(Cl)c1 (centres undefined) | inactive: 3.98% |
| O=P(Nc1nccs1)(c1ccccc1)c1ccccc1 | inactive: 1.24% |
| c1nnnn1CCn1cnnn1 | inactive: -6.34% |
| O=P1(Nc2nc3ccc(Cl)cc3s2)COc2ccccc2O1 (centres undefined) | inactive: 2.96% |
| CCOC(=O)NC(Sc1ccccc1)C(Cl)(Cl)Cl (centres undefined) | inactive: -0.48% |
| COC(=O)c1cc2c(s1)N=C(c1ccccc1)N(C)P2(=O)N1CCOCC1 (centres undefined) | inactive: 17.5% |
| CCC(=O)N1C2C3N(C(=O)CC)C1C1N(C(=O)CC)C(C(N1C(=O)CC)N3C(=O)CC)N2C(=O)CC | inactive: -1.25% |
| O=P(Nc1nccs1)(c1ccccc1)c1nc2ccccc2s1 (centres undefined) | inactive: -1.08% |
| CCOP1(=S)c2c(C)nn(CCC#N)c2N=C(c2ccccc2F)N1C (centres undefined) | inactive: 6.36% |
| O=[N+]([O-])c1ccc2c(c1)nnn2O | inactive: -3.97% |
| CCOP1(=S)c2c(C)nn(CCC#N)c2N=C(c2ccc(F)cc2)N1C (centres undefined) | inactive: 13.2% |
| Cc1cccc(OCC(=O)OC2CN3CCC2CC3)c1 (centres undefined) | inactive: 4.23% |
| O=P1(Nc2ccccn2)COc2ccccc2OC1 | inactive: -1.83% |
| Clc1n[nH]nc1-c1nn[nH][15n]1 | inactive: 4.52% |
| Cc1nn(-c2ccccc2)c2c1P(=O)(N1CCOCC1)N(C)C(c1ccccc1)=N2 (centres undefined) | inactive: 3.04% |
| Cc1ccc(OCC(=O)OC2CN3CCC2CC3)cc1 (centres undefined) | inactive: 12.2% |
| O=P1(Nc2ccc(Br)cn2)COc2ccccc2OC1 | inactive: 0.66% |
| COP1(=S)c2c(C)nn(CCC#N)c2N=C(c2ccc(F)cc2)N1C (centres undefined) | inactive: -4.73% |
| O=C(COc1ccccc1)OC1CN2CCC1CC2 (centres undefined) | inactive: 5.79% |
| O=C(OC1CN2CCC1CC2)C12CC3CC(CC(C3)C1)C2 (centres undefined) | inactive: -0.18% |
| CCN(CC)C(=S)SC(NC=O)C(Cl)(Cl)Cl (centres undefined) | inactive: -3.12% |
